Assay results from PubChem BioAssay AID429 (Emory University Molecular Libraries Screening Center, 2006).
Where “and” joins values, the source holds several entries; their conditions need not be identical. Equal values may be shown once. The list shows a part of the results, in another mix than the full data. Calls of active or inactive are those of the source.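 The calls were made as follows: active = inhibition above 50%; inactive = the rest.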

What follows are molecules tested against Heat shock protein HSP 90-alpha (Homo sapiens) (UniProt P07900) (assay: tumor Hsp90 inhibitors, primary screen, cell lysate, fluorescence polarization, NCI-N417 lysate (AID 429;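 also: 0% = tracer plus lysate wells and 100% = tracer alone without lysate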)). Conditions: NCI-N417 lysate Hsp90, Cy3B-geldanamycin FP displacement; at 30 µM; hits give high values.

| Structure (SMILES) | inhibition |
| --- | --- |
| O=C(OC1CN2CCC1CC2)c1cccc(Cl)c1 (stereo not given) | inactive: -0.97% |
| O=P(Nc1nccs1)(c1ccccc1)c1ccccc1 | inactive: -2.12% |
| c1nnnn1CCn1cnnn1 | inactive: -0.72% |
| O=P1(Nc2nc3ccc(Cl)cc3s2)COc2ccccc2O1 (stereo not given) | inactive: -0.3% |
| CN(C(=O)Cc1ccc(Cl)c(Cl)c1)[C@@H]1CCCC[C@@H]1N1CCCC1 | inactive: -1.21% |
| CN(C(=O)Cc1ccc(Cl)c(Cl)c1)[C@H]1CCCC[C@@H]1N1CCCC1 | inactive: 0.1% and inactive: 0.96% |
| Cc1c2non([O-])c-2c(C)[n+](=O)[n+]1[O-] | inactive: 1.42% |
| CCc1nc2c(n1)c1c(non1O)c1c2no[n+]1[O-] | inactive: -5.64% |
| COP1(=S)c2c(C)nn(CCC#N)c2N=C(c2ccc(F)cc2)N1C (stereo not given) | inactive: -0.66% |
| O=C(COc1ccccc1)OC1CN2CCC1CC2 (stereo not given) | inactive: -0.75% |
| O=C(OC1CN2CCC1CC2)C12CC3CC(CC(C3)C1)C2 (stereo not given) | inactive: 1.35% |
| CCOP1(=S)c2c(C)nn(CCC#N)c2N=C(c2ccc(F)cc2)N1C (stereo not given) | inactive: 1.57% |
| CN(C(=O)Cc1ccccc1)[C@@H]1CC[C@]2(CCCO2)C[C@H]1N1CCCC1 | inactive: 0.96% |
| O=P(Nc1nccs1)(c1ccccc1)c1nc2ccccc2s1 (stereo not given) | inactive: -4% |
| CCOP1(=S)c2c(C)nn(CCC#N)c2N=C(c2ccccc2F)N1C (stereo not given) | inactive: -2.33% |
| CN(C(=O)Cc1ccc(Cl)c(Cl)c1)[C@@H]1CC[C@]2(CCCO2)C[C@H]1N1CCCC1 | inactive: 1.52% |
| Cc1cccc(OCC(=O)OC2CN3CCC2CC3)c1 (stereo not given) | inactive: -5.48% |
| CN(C(=O)Cc1ccc(Cl)c(Cl)c1)[C@@H]1CCCC[C@H]1N1CCCC1 | inactive: -0.71% |
| O=P1(Nc2ccccn2)COc2ccccc2OC1 | inactive: 1.89% |
| CN(CCCl)Cc1cc(Cl)c(NC2=NCCN2)c(Cl)c1 | inactive: -3.59% |
| Clc1n[nH]nc1-c1nn[nH][15n]1 | inactive: -1.77% |
| O=P1(Nc2ncccn2)COc2ccccc2OC1 | inactive: -5.79% |
| O=P1(Nc2ccc(Br)cn2)COc2ccccc2OC1 | inactive: 0.25% |
| Cc1ccc(OCC(=O)OC2CN3CCC2CC3)cc1 (stereo not given) | inactive: 2.14% |
| Cc1nn(-c2ccccc2)c2c1P(=O)(N1CCOCC1)N(C)C(c1ccccc1)=N2 (stereo not given) | inactive: 2.69% |
